The values that follow come from patent EP3293174A1, “CRYSTALLINE SALTS OF BETRIXABAN” (SANDOZ AG, priority 2016, dated 2018).

For data set [1] the following is noted: WO 2012/031017; cited from earlier work.
Data set [2] is described as follows: Determination of the solubility in water (solvent addition technique). To be noted: in water at 25°C, estimated by solvent addition. The format is physicochemical. The protocol:
About 10 mg of crystalline betrixaban salt were weighed out into a vial. Water was added to the vial in aliquots of 500 µL and 200 µL until the salt was dissolved. In between the water additions the samples was sonicated for about 5 min, followed by shaking at 25°C for about 10 to 15 min.

Structures can show the parent of a compound that is named as a salt. Bounds are passed on as bounds.

Consider `COc1ccc(NC(=O)c2ccc(C(=N)N(C)C)cc2)c(C(=O)Nc2ccc(Cl)cn2)c1` [Betrixaban maleate form II, betrixaban maleate], for which, in data set [1], the “relative humidity at which form II reversibly converts to form III” value is listed as “above 25%”.

Take `COc1ccc(NC(=O)c2ccc(C(=N)N(C)C)cc2)c(C(=O)Nc2ccc(Cl)cn2)c1` [Betrixaban maleate form I, betrixaban maleate, reference compound]: the Solubility in data set [2] is 2700 µg/mL.

As to `COc1ccc(NC(=O)c2ccc(C(=N)N(C)C)cc2)c(C(=O)Nc2ccc(Cl)cn2)c1` [Betrixaban hydrobromide, form B, betrixaban hydrobromide], the Solubility in data set [2] (hydrobromide) was above 3000 µg/mL.

Turning to `COc1ccc(NC(=O)c2ccc(C(=N)N(C)C)cc2)c(C(=O)Nc2ccc(Cl)cn2)c1` [Betrixaban hydrochloride, form B, betrixaban hydrochloride], the Solubility in data set [2] (hydrochloride) is above 3000 µg/mL.
